The chains behind the UniProt entries cited, without tags or fusion partners. Residues count along the entry.
UniProt P05091, 18-517 limits assumed: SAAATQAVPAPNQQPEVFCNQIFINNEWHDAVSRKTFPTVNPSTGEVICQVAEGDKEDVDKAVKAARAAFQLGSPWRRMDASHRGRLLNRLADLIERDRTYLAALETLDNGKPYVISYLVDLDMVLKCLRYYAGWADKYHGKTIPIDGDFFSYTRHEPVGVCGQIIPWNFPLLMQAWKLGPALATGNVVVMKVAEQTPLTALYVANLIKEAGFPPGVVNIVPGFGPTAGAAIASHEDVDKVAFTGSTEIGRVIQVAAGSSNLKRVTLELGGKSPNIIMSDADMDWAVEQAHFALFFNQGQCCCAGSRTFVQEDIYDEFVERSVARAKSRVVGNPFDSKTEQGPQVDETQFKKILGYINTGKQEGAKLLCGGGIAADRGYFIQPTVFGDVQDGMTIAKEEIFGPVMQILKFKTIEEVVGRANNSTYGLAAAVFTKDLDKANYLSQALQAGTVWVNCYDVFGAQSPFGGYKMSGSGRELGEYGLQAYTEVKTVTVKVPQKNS
UniProt O00519, whole entry: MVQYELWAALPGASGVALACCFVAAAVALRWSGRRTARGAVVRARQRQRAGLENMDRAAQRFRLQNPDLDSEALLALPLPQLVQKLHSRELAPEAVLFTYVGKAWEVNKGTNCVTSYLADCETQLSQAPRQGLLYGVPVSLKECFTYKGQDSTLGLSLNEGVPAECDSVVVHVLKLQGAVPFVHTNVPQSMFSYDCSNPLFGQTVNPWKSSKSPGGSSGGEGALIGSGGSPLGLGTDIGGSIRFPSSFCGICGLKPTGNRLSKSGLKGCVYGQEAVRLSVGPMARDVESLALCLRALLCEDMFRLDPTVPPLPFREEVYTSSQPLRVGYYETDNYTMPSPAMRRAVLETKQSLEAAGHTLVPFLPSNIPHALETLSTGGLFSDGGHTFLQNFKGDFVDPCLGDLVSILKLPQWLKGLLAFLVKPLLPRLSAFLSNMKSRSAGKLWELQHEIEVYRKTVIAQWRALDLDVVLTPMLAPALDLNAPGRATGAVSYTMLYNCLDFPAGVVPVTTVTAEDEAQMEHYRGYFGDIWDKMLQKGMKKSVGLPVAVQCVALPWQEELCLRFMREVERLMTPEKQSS
UniProt P00352, whole entry: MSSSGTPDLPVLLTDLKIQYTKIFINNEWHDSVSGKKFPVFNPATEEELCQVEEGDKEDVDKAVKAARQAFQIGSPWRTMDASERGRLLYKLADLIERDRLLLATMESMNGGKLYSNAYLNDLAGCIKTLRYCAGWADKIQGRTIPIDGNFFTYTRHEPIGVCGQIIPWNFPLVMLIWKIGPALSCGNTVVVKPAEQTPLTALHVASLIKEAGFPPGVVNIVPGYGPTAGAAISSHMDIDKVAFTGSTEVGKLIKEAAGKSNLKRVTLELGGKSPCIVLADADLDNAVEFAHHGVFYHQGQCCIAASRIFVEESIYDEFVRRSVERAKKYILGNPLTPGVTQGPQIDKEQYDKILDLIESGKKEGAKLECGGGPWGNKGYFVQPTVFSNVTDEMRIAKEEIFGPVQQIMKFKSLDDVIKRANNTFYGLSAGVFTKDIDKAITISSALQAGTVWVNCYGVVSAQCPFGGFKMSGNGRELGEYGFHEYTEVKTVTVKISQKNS
UniProt Q99685, whole entry: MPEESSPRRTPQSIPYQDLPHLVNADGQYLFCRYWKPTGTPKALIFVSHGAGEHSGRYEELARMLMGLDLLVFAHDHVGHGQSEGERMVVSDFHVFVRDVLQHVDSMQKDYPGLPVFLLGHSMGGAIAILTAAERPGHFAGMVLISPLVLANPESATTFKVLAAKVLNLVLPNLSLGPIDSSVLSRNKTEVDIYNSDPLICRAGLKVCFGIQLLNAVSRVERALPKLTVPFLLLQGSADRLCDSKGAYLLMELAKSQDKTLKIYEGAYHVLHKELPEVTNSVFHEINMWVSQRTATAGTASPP

According to patent US11753371B2 (BATTERJEE MEDICAL COLLEGE, priority 2021, dated 2023):

How the values were obtained:
Type in all cases: biochemical
ALDH2 = ALDH2 (Homo sapiens (Human), UniProt P05091); assay: ALDH assay (diaphorase/resazurin), ALDH2 inhibition; details: Table I; mean of at least two independent experiments
human FAAH (hFAAH) = human FAAH (hFAAH) (Homo sapiens (Human), UniProt O00519); assay: FAAH enzyme inhibition assay (Cayman screening kit, AMC-arachidonoyl amide); details: for IC50 (μM) ± SE (hFAAH): Table II, average of at least two different experiments
ALDH1a1 = ALDH1a1 (Homo sapiens (Human), UniProt P00352); assay: ALDH assay (diaphorase/resazurin), ALDH1a1 inhibition
human MAGL (hMAGL) = human MAGL (hMAGL) (Homo sapiens (Human), UniProt Q99685); assay: MAGL enzyme inhibition assay (4-nitrophenylacetate); details: relative to disulfiram / unsubstituted analogue

Structure (SMILES) | IC50 (μM) ± SE (ALDH2) (ALDH2) | FAAH inhibitory activity (in words) (human FAAH (hFAAH)) | IC50 (μM) ± SE (hFAAH) (human FAAH (hFAAH)) | ALDH1a1 inhibitory activity (in words) (ALDH1a1) | fold decrease in MAGL inhibitory activity (human MAGL (hMAGL)) | IC50 (ALDH1a1; read-out: IC50 (μM) ± SE (ALDH1a1), Table I, mean of at least two independent experiments) [µM]
S=C(SSC(=S)N(Cc1ccccc1)Cc1ccccc1)N(Cc1ccccc1)Cc1ccccc1 | NI | complete loss of FAAH inhibitory activity | NI | complete loss of activity |  | 
CCCCN(CCCC)C(=S)SSC(=S)N(CCCC)CCCC |  | no inhibition of FAAH | NI |  | up to 15 fold | 
S=C(SSC(=S)N1CCCCC1)N1CCCCC1 |  |  |  |  |  | 0.06
